Biological target: Thymidylate synthase (Escherichia coli, UniProt C3SWJ7)
Test: The inhibitory concentration of compound was evaluated on Escherichia coli thymidylate synthase

The chains behind the UniProt entries cited, without tags or fusion partners.
UniProt C3SWJ7, whole entry: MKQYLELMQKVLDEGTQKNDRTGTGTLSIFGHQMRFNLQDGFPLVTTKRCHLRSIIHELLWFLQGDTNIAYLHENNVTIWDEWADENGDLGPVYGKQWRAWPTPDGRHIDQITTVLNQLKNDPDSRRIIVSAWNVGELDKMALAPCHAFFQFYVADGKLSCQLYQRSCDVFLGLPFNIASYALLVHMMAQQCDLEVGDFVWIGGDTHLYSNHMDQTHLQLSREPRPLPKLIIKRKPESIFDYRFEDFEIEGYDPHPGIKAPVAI

`Cc1nc2ccc(CN(C)c3ccc(C(=O)N[C@@H](CCC(=O)O)C(=O)O)s3)cc2c(=O)[nH]1` [RALTITREXED] was tested. Which IC50 did it give?
The IC50 was 5.3 µM.
